Here are results for one molecule from publication PMC7563123 (Biomolecules, 2020).

Settings in all cases: both partners purified
In test [1] the target is T1, amyloid beta peptide 1-40 (Aβ1–40) (human, UniProt P05067 672-711).
T1 construct: amyloid beta peptide of 40 amino acids, human, produced from amyloid precursor protein; numbers count on: the Aβ peptide; Stock dissolved in 1% NH4OH and diluted by PBS to 100 μM; Preparation C (HFIP) is called monomeric, though it might hold monomers and low oligomers; also called monomeric Aβ_(1–40); source: synthetic peptide, bought: AnaSpec
The test can be described thus: SPR; monomeric Aβ (Aβ1–40 by Preparation C, HFIP; Aβ1–42 by Preparation B, NaOH), five concentrations, flowed over cypD or 17β-HSD10 captured by immobilised antibody; running buffer RB1 (10 mM HEPES pH 7.4, BSA 200 μg/mL, 5 mM Na+, 140 mM K+, 1 mM Mg2+); 25 °C, 20 µL/min; global fit, 1:1 Langmuir model.

The target of test [2] is T2, amyloid beta peptide 1-42 (Aβ1–42) (human, UniProt P05067 672-713).
T2 construct: amyloid beta peptide of 42 amino acids, human, produced from amyloid precursor protein; numbers count on: the Aβ peptide; One peptide used in two states; Preparation B (NaOH) is called monomeric, though it might hold monomers and low oligomers; Preparation A (plain dilution of the stock) is called oligomeric, and the size of the oligomers is not determined; The states are told apart by the …
The description is as above.

Test [3] addresses T2, amyloid beta peptide 1-42 (Aβ1–42). The test can be described thus: SPR; oligomeric Aβ1–42 (Preparation A, dilution of the stock), 1.1-0.055 μM, flowed over cypD or 17β-HSD10 captured by immobilised antibody; running buffer RB1 (10 mM HEPES pH 7.4, BSA 200 μg/mL, 5 mM Na+, 140 mM K+, 1 mM Mg2+); 25 °C, 20 µL/min; global fit, 1:1 Langmuir model.

B1: 17β-hydroxysteroid dehydrogenase type 10 (17β-HSD10), human recombinant, commercial (enzyme, UniProt Q99714 1-261, looked up)
chain: MAAACRSVKGLVAVITGGASGLGLATAERLVGQGASAVLLDLPNSGGEAQAKKLGNNCVFAPADVTSEKDVQTALALAKGKFGRVDVAVNCAGIAVASKTYNLKKGQTHTLEDFQRVLDVNLMGTFNVIRLVAGEMGQNEPDQGGQRGVIINTASVAAFEGQVGQAAYSASKGGIVGMTLPIARDLAPIGIRVMTIAPGLFGTPLLTSLPEKVCNFLASQVPFPSRLGDPAEYAHLVQAIIENPFLNGEVIRLDGAIRMQP
notes: 17β-hydroxysteroid dehydrogenase 10, human recombinant, NCBI Gene ID 3028; Commercial protein; It was held on the chip by an immobilised anti-17β-HSD10 antibody; also called 17β-HSD10_(commercial); source: bought: Fitzgerald
A word on the Kd: it is the equilibrium constant for the complex coming apart. Usually koff stands for the rate constant with which the complex falls apart. A lower koff goes with a long-lived complex. In general, kon refers to the rate constant with which the complex forms. As to B1, the Kd in test [1] was determined as 74.5 ± 1.8 nM; in test [2] it was 181 ± 16 nM; in test [3], 8 ± 3.7 nM. For the same molecule, the koff came out at 4.7e-05 s⁻¹ in test [1], 0.000112 s⁻¹ in test [2] and 3.1e-05 s⁻¹ in test [3]. The association rate constant (kon) in test [1] came out at 630 M⁻¹ s⁻¹; in test [2], 650 M⁻¹ s⁻¹; in test [3], 4040 M⁻¹ s⁻¹.
